According to PubChem BioAssay AID1021 (Emory University Molecular Libraries Screening Center, 2008):
The entries are a selection whose mix differs from that of the whole data set. The source made the active and inactive calls.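 Rule for the calls: active = compounds that cut the binding signal by more than half at the single screening dose; inactive = the rest.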

Sequences of proteins named here, by UniProt entry; tags and fusion partners are left off.
UniProt Q07820, whole entry: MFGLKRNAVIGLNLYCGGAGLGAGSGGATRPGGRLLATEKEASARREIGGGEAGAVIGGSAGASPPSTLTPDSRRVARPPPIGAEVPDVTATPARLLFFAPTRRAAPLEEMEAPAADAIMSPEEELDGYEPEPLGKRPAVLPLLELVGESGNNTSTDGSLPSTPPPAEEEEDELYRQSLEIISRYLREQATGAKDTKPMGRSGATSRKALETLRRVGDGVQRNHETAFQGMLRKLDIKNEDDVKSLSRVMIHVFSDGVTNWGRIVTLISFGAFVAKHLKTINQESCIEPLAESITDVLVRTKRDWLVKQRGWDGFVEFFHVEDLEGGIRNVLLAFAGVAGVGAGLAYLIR

These compounds were tested against Induced myeloid leukemia cell differentiation protein Mcl-1 (Homo sapiens) (UniProt Q07820) (assay: disruptors of Mcl-1 and Bid BH3 peptide – biochemical, TR-FRET, 1536-well, primary screen (AID 1021;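 note: His-tagged Mcl-1 with europium anti-His antibody binding Bid BH3 peptide; 0% = Mcl-1 plus peptide wells and 100% = peptide-only wells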)). Conditions: TR-FRET Mcl-1/Bid-Dy647 peptide binding, at 21.7 µM, active compounds read high.

| SMILES | inhibition |
| --- | --- |
| Cc1ccc(OCC(C)C)c(CN(CCCl)CCCl)c1 | active: 84.1% |
| CCOc1ccc(C)cc1CN(CCCl)CCCl | inactive: 17.3% |
| COc1ccc(NC2CCN(CCc3ccccc3)CC2)c(OC)c1 | inactive: 16.5% |
| O=C(NCC1(N2CCOCC2)CCCCC1)c1cc2ccccc2o1 | inactive: -12.5% |
| CCOC(=O)N1CCC(Nc2ccc(OC)cc2)CC1 | inactive: -43.9% |
| O=C(OC1CN2CCC1CC2)C1c2ccccc2Oc2ccccc21 (centres undefined) | inactive: -9.72% |
| N#CC1(Nc2ccccc2)CCN(Cc2ccccc2)CC1 | inactive: -2.14% |
| COc1ccc(C(=O)NCC2(N3CCCCC3)CCCCC2)c(OC)c1OC | inactive: -3.06% |
| COc1ccc(CN(CCCl)CCCl)cc1Cl | inactive: 16.9% |
| CN(C)c1cccc(C(=O)NCC2(N3CCCCC3)CCCCC2)c1 | inactive: -66% |
| CC(C)c1ccc(NC2CCN(C(=O)OC(C)(C)C)CC2)cc1 | inactive: -37% |
| COc1ccc(NC2CCN(C(=O)OC(C)(C)C)CC2)cc1 | inactive: -74.6% |
| CN1CCN(CCOC(=O)C(O)(c2ccccc2)c2ccccc2)CC1 | inactive: -22.4% |
| O=C(NCC1(N2CCOCC2)CCCCC1)c1cc(=O)[nH]c2ccccc12 | inactive: -2.29% |
| O=C(NCC1(N2CCCCC2)CCCCC1)c1cccc([N+](=O)[O-])c1 | inactive: -28.9% |
| N#CC1(Nc2ccccc2)CCN(CCc2ccccc2)CC1 | inactive: -27.5% |
| c1ccc(CN2CCC(Nc3ccccc3)CC2)cc1 | inactive: -37.5% |
| N#Cc1ccc(C(=O)NCC2(N3CCCCC3)CCCCC2)cc1 | inactive: -5.73% |
| N/C(=N\O)c1c(N)no[n+]1[O-] | inactive: -12.1% |
| O=C(OC1CN2CCC1CC2)C1c2ccccc2C=Cc2ccccc21 (centres undefined) | inactive: -19.8% |
| COc1ccc(C(=O)NCC2(N3CCOCC3)CCCCC2)cc1OC | inactive: -2.54% |
| CCC(CO)(C(=O)OC1CN2CCC1CC2)c1ccccc1 (centres undefined) | inactive: 1.38% |
| COc1cc(OC)cc(C(=O)NCC2(N3CCOCC3)CCCCC2)c1 | inactive: -9.84% |
| CCCOc1ccc(C)cc1CN(CCCl)CCCl | inactive: -0.33% |
| CCOc1ncccc1C(=O)NCC1(N2CCOCC2)CCCCC1 | inactive: -14.4% |
| CC(C)(C)OC(=O)N1CCC(Nc2ccccc2)CC1 | inactive: -40.6% |
| CCN1CCC(Nc2cccc(F)c2)CC1 | inactive: 30.7% |
| CN(C)c1ccc(C(=O)NCC2(N3CCCCC3)CCCCC2)cc1 | inactive: -42.8% |
| Fc1ccccc1NC1CCN(Cc2ccccc2)CC1 | inactive: 32.9% |
